Experiment: Solubility of salts of Compound (IV)
Assay type: physicochemical

Solubility: 1400 µg/mL | pH of solubility solution: 4.67
Substance: Dihydrogen phosphate

Source: patent publication US12116355B2, “Deuterated 1-piperazino-3-phenyl indanes for treatment of schizophrenia” (H. Lundbeck A/S, priority 2011, dated 2024)
